Patent publication US20230338564A1, “NEODEGRADER CONJUGATES” (Orum Therapeutics, Inc., priority 2020, published 2023)

Key:
Format in all cases: cell-based
[1] = tested on: Daudi lymphoma cell line; assay: In vitro antiproliferation assay, General Procedure 1 (WST-8); conditions: Daudi cells; rituximab neoDegrader conjugates versus comparators; FIGS. 14 and 15
Method: (§1) The ability of neoDegrader conjugates to inhibit cell growth was measured using in vitro anti-proliferation assay. […] Conjugates were diluted in complete cell growth medium using 4-fold serial dilutions and 100 µL was added per well. […] Viability of remaining cells was determined by colorimetric WST-8 assay (Dojindo Molecular Technologies, Inc., Rockville, MD, US). WST-8 was added to 10% of the final volume and plates were incubated at 37° C. in a humidified 5% CO2 incubator for 2-4 hours. Plates were analyzed by measuring the absorbance at 450 nm (A450) in a multi-well plate reader. Background A450 absorbance of wells with media and WST-8 only was subtracted from all values. The percent viability was calculated by dividing each treated sample value by the average value of wells with untreated cells. The percent viability value was plotted against the test sample concentration in a semi-log plot for each treatment. IC50 values were calculated automatically.

[2] = tested on: Ramos (non-Hodgkins lymphoma) cell line; assay: as above; conditions: Ramos cells; rituximab neoDegrader conjugates versus comparators; FIG. 13
Method: as §1

[3] = tested on: SK-BR-3 breast cancer cell line; assay: as above; conditions: for IC50: Breast, conjugates DAR 8
Method: as §1

[4] = tested on: HL-60 (acute myeloid leukemia) cell line; assay: as above; conditions: HL-60 cells; neoDegrader conjugates versus comparators; FIGS. 9-12
Method: The ability of neoDegrader conjugates to inhibit cell growth was measured using in vitro anti-proliferation assay. Target cells were plated at 1,500 - 5,000 cells per well in 100 µL complete cell growth medium (RPMI 1640, 10% fetal bovine serum and 1% Penicillin-streptomycin for most cell lines; Hybri-care medium, 1.5 g/L sodium bicarbonate, 10% fetal bovine serum and 1% Penicillin-streptomycin for BT-474; RPMI 1640, 20% fetal bovine serum and 1% Penicillin-streptomycin for HL-60). Conjugates were diluted in complete cell growth medium using 4-fold serial dilutions and 100 µL was added per well. The final concentration typically ranged from 1 × 10^-8 M to 1.53 × 10^-13 M or 1 × 10^-7 M to 1.53 × 10^-12 M. Cells were incubated at 37° C. in a humidified 5% CO2 incubator for 5 days. Viability of remaining cells was determined by colorimetric WST-8 assay (Dojindo Molecular Technologies, Inc., Rockville, MD, US). WST-8 was added to 10% of the final volume and plates were incubated at 37° C. in a humidified 5% CO2 incubator for 2-4 hours. Plates were analyzed by measuring the absorbance at 450 nm (A450) in a multi-well plate reader. Background A450 absorbance of wells with media and WST-8 only was subtracted from all values. The percent viability was calculated by dividing each treated sample value by the average value of wells with untreated cells. […] IC50 values were calculated automatically.

[5] = tested on: AU565 cell line; assay: In vitro antiproliferation assay, General Procedure 2 (CCK-8); conditions: breast, adenocarcinoma
From the text: (§2) Cell Culture: Cell lines were obtained from the American Type Culture Collection (ATCC, Manassas, VA, USA) or Deutsche Sammlung von Mikroorganismen und Zellkulturen (DSMZ, Braunschweig, Germany) and maintained according to the culturing conditions specified by ATCC or DSMZ. Cells were thawed out and maintained in culture for at least two passages before proceeding with experimental conditions.
(§3) Cytotoxicity assays: For adherent cell lines, the cells were dissociated with enzyme-free PBS-based cell dissociation buffer (Gibco, USA) and plated on tissue culture treated 96-well flat bottom polystyrene plates (Costar, Corning, USA) at appropriate cell densities depending on doubling time of the cells. 18 hours after plating, cells were treated with test articles at appropriate concentrations starting at 100 nM and diluted in 4-fold serial dilutions. For suspension cell lines, the cells were seeded on the same day of treatment and cells were treated as described above. Adherent cells were treated for 5 days and suspension cells were treated for 3 days. Cell proliferation was assessed using the Cell Counting Kit-8 (CCK-8, Dojindo Laboratories, Japan) and measurements were obtained using the Promega GloMax Discover plate reader (Promega, USA). Data were analyzed using GraphPad Prism software (GraphPad Software, San Diego, CA). All data points were obtained from technical triplicates and the experiments were validated using three biological replicates.

[6] = tested on: HCC1569 cell line; assay: as above; conditions: breast, primary metaplastic carcinoma
From the text: as §2, §3

[7] = tested on: HCC2218 cell line; assay: as above; conditions: breast, primary ductal carcinoma
From the text: as §2, §3

[8] = tested on: MDA-MB-361 cell line; assay: as above; conditions: breast, adenocarcinoma
From the text: as §2, §3

[9] = tested on: NCI-N87 cell line; assay: as above; conditions: stomach, gastric carcinoma
From the text: as §2, §3

[10] = tested on: SK-BR-3 cell line; assay: as above; conditions: breast, adenocarcinoma (pleural effusion)
From the text: as §2, §3

[11] = tested on: ZR-75-30 cell line; assay: as above; conditions: breast, ductal carcinoma
From the text: as §2, §3

[12] = tested on: NCI-N87 gastric cancer cell line; assay: In vitro antiproliferation assay, General Procedure 1 (WST-8); conditions: NCI-N87 cells; neoDegrader conjugates (DAR 8) versus comparators; FIGS. 16 and 17
Method: as §1

Trastuzumab-Compound (Ia)
antiproliferative activity compared, in words [1]: less active | antiproliferative activity compared, in words [2]: less active | IC50 [3]: 0.015 nM | antiproliferative activity compared, in words [4]: significantly less active

Kadcyla: antibody drug conjugate Kadcyla [reference compound]
IC50 [3]: 0.008 nM

Enhertu [reference compound]
IC50 [5]: 0.559 nM | IC50 [6]: 0.837 nM | IC50 [7]: 4.36 nM | IC50 [8]: 4.74 nM | IC50 [9]: 0.882 nM | IC50 [10]: 0.753 nM | IC50 [11]: 9.42 nM

Trastuzumab [reference compound]
anti-proliferative activity compared, in words [12]: significantly less active | IC50 [3]: 0.086 nM | anti-proliferative activity compared, in words ([3]; SK-BR-3 cells, neoDegrader conjugates (DAR 8) versus comparators, FIGS. 7 and 8): significantly less active
